From patent US20240279191A1, “SMALL MOLECULE INHIBITORS OF TEAD-YAP” (The General Hospital Corporation, priority 2021, published 2024)

Experiments:
[1] = Metabolic stability CLint, human (Tables H1, H2)
[2] = logD 7.4; settings: pH 7.4
[3] = Metabolic stability CLint, mouse (Tables H1, H2)

NC(=O)c1cncc(OC(=O)N2CCN(CCCCCc3ccccc3)CC2)c1
CLint human [1]: 66 mL/min/kg | logD 7.4 [2]: 3.8 | CLint mouse [3]: 120 mL/min/kg

O=C(NCCc1ccccc1)C1CCN(C(=O)Oc2cccnc2)CC1
CLint human [1]: 41 mL/min/kg | logD 7.4 [2]: 2.54 | CLint mouse [3]: 98 mL/min/kg

O=C(NCc1ccccc1)C1CCN(C(=O)Oc2cccnc2)CC1
CLint human [1]: 24 mL/min/kg | logD 7.4 [2]: 2.5 | CLint mouse [3]: 63 mL/min/kg
